PABP1 MLLE inh: blocks PAM2 peptide binding to the PABP1 MLLE domain; inhibition, % at 20 µM; AID 588489; actives 0.36% (n = 360,000); P11940; GST-MLLE / FITC-PAM2 fluorescence polarization; in the data active means inhibition above about 35%, passing the limit was not always enough;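 further: plate controls were DMSO wells with GST-MLLE for no effect and wells lacking GST-MLLE protein for full effect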
PABP polyA inh: PABP-poly(A) binding inhibition; PABP-poly(A) RNA binding, fluorescence polarization; calls only at 35 µM; actives 1% (n = 290,000); AID 2014;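 further: calls also rest on retests at 20 µM and on dose response follow-up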
DSG3 Ab inh: inhibitors of pemphigus antibody binding to human desmoglein-3 | P32926 | DSG3-coupled beads, scFv-anti-DSG3-GFP binding, flow cytometry; active compounds read low | binding (percent of control), % at 10 µM | actives 0.48% (n = 310,000);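 active means binding more than 3 SD below its plate's average and above zero; inconclusive means below that plate limit but binding exactly zero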;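 further: hits lower antibody fragment binding to DSG3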
eIF4H inh: inhibitors of RNA binding by human eIF4H; eIF4H fluorescence polarization binding assay; inhibition, % at 35 µM; actives 0.94% (n = 290,000); AID 2012;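 further: calls also rest on retests at 20 µM and on dose response follow-up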
Yeast UUG start: alters start codon recognition fidelity in yeast; S. cerevisiae UUG-firefly luciferase reporter, luminescence/redox ratio; activity score, % at 18.7 µM; actives 0.13% (n = 350,000); AID 602363;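 active = replicate mean at a twofold rise or more, about +100% in these data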;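 also: firefly luciferase made from a UUG start codon reports start codon fidelity; reporter light over untreated wells divided by growth signal over untreated wells; some hits fall short of that in this replicate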
* hit, by the source's call; i = inactive; ? = inconclusive; / = not tested or not shown; + = active, no number. Shown are actives, neighbours in structure and some others; about 1.5% of the full set was active somewhere. Unless noted, how the calls were made is not given here.

PABP1 MLLE inh,PABP polyA inh,DSG3 Ab inh,eIF4H inh,Yeast UUG start,Molecule
-7,i,103,-1,-13,COc1ccc(-c2cn3cccnc3n2)cc1NC(=O)c1ccc(Br)o1
5,i,81*,-8,-12,Cc1ccc(-c2cn3cccnc3n2)cc1NC(=O)c1ccc(Br)o1
41*,i,112,7,-5,Cc1ccc(O)c(NC(=S)NC(=O)/C=C/c2ccccc2)c1
39*,i,96,-4,-20,COc1ccc(C(=O)O)cc1NC(=S)NC(=O)/C=C/c1ccc(C(C)C)cc1
14,i,104,-4,7,CCCCC(=O)NC(=S)Nc1cc(C(=O)O)ccc1OC
/,/,/,/,-7,COCCNC(=O)C[C@@H]1C[C@H]2c3cc(NC(=O)Nc4ccccc4F)ccc3O[C@H]2[C@@H](CO)O1
/,/,/,/,4,CCCN(C)C[C@H]1Oc2cc(-c3ccc(C)cc3)ccc2S(=O)(=O)N([C@@H](C)CO)C[C@H]1C
9,i,114,7,-22,O=C(NC1=NCCS1)c1ccccc1Cl
42*,i,103,3,-18,CC(C)C(NC(=O)c1cccs1)C(=O)NC1=NCCS1 (configuration not stated)
44*,i,112,2,-15,O=C(NC1=NCCS1)c1cccs1
3,i,120,-11,-24,O=C(NC1=NCCS1)c1ccccc1
36*,i,100,-4,-26,O=C(NC1=NCCS1)c1csc2ccccc12

The listing continues:
PABP1 MLLE inh,PABP polyA inh,DSG3 Ab inh,eIF4H inh,Yeast UUG start,Molecule
16,i,103,-9,/,CC(C)C(NC(=O)c1ccc(C(C)(C)C)cc1)C(=O)NC1=NCCS1 (configuration not stated)
/,/,/,/,-21,CCNC(=O)C[C@@H]1CC[C@H](NS(=O)(=O)c2ccc(F)cc2)[C@H](CO)O1
/,/,/,/,1,CCNC(=O)C[C@H]1C=C[C@H](NC(=O)C2CCOCC2)[C@@H](CO)O1
-9,i,118,-7,-11,O=C(CCCc1ccccc1)Nc1ccccc1C(F)(F)F
-2,+,101,80*,1,COc1ccc(CCC(=O)Nc2ccccc2C(F)(F)F)cc1
-71,i,105,53*,/,CCN(CC)c1ccc(C=C(c2nnnn2-c2ccc(C)cc2)c2nnnn2-c2ccc(C)cc2)cc1
i,?,58*,?,-8,O=C1c2ccccc2-c2onc3ccc(NCc4ccco4)c1c23
14,/,/,/,/,O=C1C(Cl)=C(NCc2ccco2)C(=O)c2ccccc21
i,i,122,45,-7,CCOc1ccc2noc3c2c1C(=O)c1ccccc1-3
i,i,30*,?,/,CCNc1ccc2noc3c2c1C(=O)c1ccccc1-3
i,i,47*,?,/,O=C1c2ccccc2-c2onc3ccc(N4CCCC4)c1c23
-10,i,61*,64,-9,O=C(N/N=C1/C(=O)c2cccc3cccc1c23)c1ccc(Cl)cc1

Records listed above printed as active in DSG3 Ab inh:
PABP1 MLLE inh,PABP polyA inh,DSG3 Ab inh,eIF4H inh,Yeast UUG start,Molecule
5,i,81*,-8,-12,Cc1ccc(-c2cn3cccnc3n2)cc1NC(=O)c1ccc(Br)o1
i,?,58*,?,-8,O=C1c2ccccc2-c2onc3ccc(NCc4ccco4)c1c23
i,i,30*,?,/,CCNc1ccc2noc3c2c1C(=O)c1ccccc1-3
i,i,47*,?,/,O=C1c2ccccc2-c2onc3ccc(N4CCCC4)c1c23
-10,i,61*,64,-9,O=C(N/N=C1/C(=O)c2cccc3cccc1c23)c1ccc(Cl)cc1

Later entries:
PABP1 MLLE inh,PABP polyA inh,DSG3 Ab inh,eIF4H inh,Yeast UUG start,Molecule
-1,i,104,23,-9,CCNC(=S)N/N=C1\C(=O)c2cccc3cccc1c23
45*,?,89,?,/,Cc1ccc(S(=O)(=O)Nc2nc3ccccc3nc2Nc2cccc(S(=O)(=O)N3CCCC3)c2)cc1
4,i,108,17,/,O=[N+]([O-])c1cccc(S(=O)(=O)Nc2nc3ccccc3nc2Nc2cccc(S(=O)(=O)N3CCCCC3)c2)c1
/,/,/,/,-5,CNC[C@@H]1Oc2c(NC(=O)Nc3ccc(F)cc3)cccc2C(=O)N([C@H](C)CO)C[C@H]1C
18,+,101,?,43,NC(=O)C1=C[C@H](c2ccc(C(F)(F)F)cc2)C[C@H](OCc2ccc(CO)cc2)O1
-5,i,83,95*,-7,CN(CCC#N)C(=O)COC(=O)c1c2c(nc3ccccc13)/C(=C/c1ccco1)CC2
-6,/,94,/,-6,CC(C)CNC(=O)COC(=O)c1c2c(nc3ccccc13)/C(=C\c1cccs1)CC2
/,/,/,/,-3,COCC(=O)N1[C@H](CO)[C@H]2c3ccccc3N(C(=O)C3CC3)C[C@H]21
/,i,/,-17,/,CCOc1ncccc1C(=O)OCC(=O)Nc1cc(C(=O)OC)ccc1C(=O)OC
9,i,-8.0*,-2,/,COC(=O)c1ccc(C(=O)OC)c(NC(=O)COC(=O)c2ccccc2OC)c1
/,/,/,/,-7,COCC(=O)N(C)C[C@H]1Oc2cc(-c3ccc(F)cc3)ccc2S(=O)(=O)N([C@H](C)CO)C[C@@H]1C
-20,/,115,/,-31,NC(=O)c1ccc(NC(=O)COC(=O)c2cc3c(s2)CCC3)cc1

Next section
PABP1 MLLE inh,PABP polyA inh,DSG3 Ab inh,eIF4H inh,Yeast UUG start,Molecule
4,+,106,97*,/,O=C(COC(=O)c1cc2c(s1)CCC2)Nc1ccc(F)cc1
/,/,/,/,-12,CCCC#Cc1ccc2c(c1)O[C@H](CN(C)Cc1cccnc1)[C@@H](C)CN([C@H](C)CO)S2(=O)=O
13,i,77,4,-7,CC(=O)[C@@H]1[C@@H](C(=O)c2ccc(F)cc2)[C@]2(C(=O)Nc3ccccc32)[C@H]2C=Cc3cc(F)ccc3N12
/,i,/,51*,1,O=C(c1ccc(F)cc1)[C@@H]1[C@@H](C(=O)c2ccccc2)[C@@]2(C(=O)Nc3ccccc32)[C@H]2c3ccccc3C=CN12
6,+,106,5.3*,-1,COc1ccc(NS(=O)(=O)c2cc(NC(=O)CCSc3ccccc3)ccc2OC)cc1
-15,+,110,55*,-17,COc1ccc2cc(CN(CCc3ccccc3)Cc3nnnn3Cc3ccco3)c(=O)[nH]c2c1
17,+,102,54*,-7,COc1cc2cc(CN(Cc3nnnn3Cc3ccccc3)CC3CCCO3)c(=O)[nH]c2cc1OC (configuration not stated)
-31,+,103,50*,-6,CCOc1ccc2[nH]c(=O)c(C(c3nnnn3Cc3ccco3)N3CCC(C)CC3)cc2c1 (configuration not stated)
-13,i,94,30*,-5,CCOc1ccc2[nH]c(=O)c(C(c3nnnn3Cc3ccco3)N3CCCC(C)C3)cc2c1 (configuration not stated)
-13,i,94,-3,-14,CCOc1ccc2[nH]c(=O)c(C(c3nnnn3C3CCCCC3)N3CCN(C)CC3)cc2c1 (configuration not stated)
-20,i,105,-5,-9,CCC(c1nnnn1Cc1ccco1)N(Cc1ccccc1OC)Cc1cc2cc(C)ccc2[nH]c1=O (configuration not stated)
1,i,102,20*,-1,CCC(c1nnnn1Cc1ccco1)N(Cc1cc2cc(C)cc(C)c2[nH]c1=O)CC1CCCO1 (configuration not stated)
-24,+,107,63*,/,COc1ccc2[nH]c(=O)c(CN(C3CCCCC3)C(c3nnnn3Cc3ccco3)C(C)C)cc2c1 (configuration not stated)
36,+,102,87,8,CCC(C)(C)n1nnnc1C(C(C)C)N(Cc1ccco1)Cc1cc2cc3c(cc2[nH]c1=O)OCO3 (configuration not stated)
